# From patent US9682983B2, “BMP inhibitors and methods of use thereof” (THE BRIGHAM AND WOMEN'S HOSPITAL, INC., priority 2013, dated 2017)
# Protein sequences, listed by entry. Tags and fused reporters are not part of them. Residues count along the entry.
# UniProt Q04771, 21-509: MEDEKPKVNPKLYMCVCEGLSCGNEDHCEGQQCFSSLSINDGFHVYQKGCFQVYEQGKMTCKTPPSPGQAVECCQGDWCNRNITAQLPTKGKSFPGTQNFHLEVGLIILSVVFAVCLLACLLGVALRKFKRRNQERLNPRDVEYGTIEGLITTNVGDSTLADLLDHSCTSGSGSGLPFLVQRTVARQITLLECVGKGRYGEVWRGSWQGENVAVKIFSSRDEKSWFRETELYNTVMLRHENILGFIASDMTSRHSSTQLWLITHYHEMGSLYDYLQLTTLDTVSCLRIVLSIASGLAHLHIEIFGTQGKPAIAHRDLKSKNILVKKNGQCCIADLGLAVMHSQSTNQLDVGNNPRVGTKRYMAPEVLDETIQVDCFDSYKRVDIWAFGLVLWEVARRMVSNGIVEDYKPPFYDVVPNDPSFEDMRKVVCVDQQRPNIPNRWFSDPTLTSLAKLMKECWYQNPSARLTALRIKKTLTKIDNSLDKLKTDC
# Experiments:
# [1] = tested on: TGF-β signaling activity (CAGA-Luc, human embryonic kidney 293T cells); assay: Cell luciferase assay, TGFβ (293T CAGA-Luc, TGF-β1 ligand); conditions: HEK-293T, read-out: Cellular Assay IC50 (nM) TGFβ
# [2] = biological target: human ALK2 (Homo sapiens (Human), UniProt Q04771); assay: LANCE Ultra ULight enzymatic assay (FOP Enzymatic Assay), ALK2; format: biochemical; conditions: read-out: ALK2 IC50 (nM) at 10 μM ATP
# [3] = tested on: BMP signaling activity (BRE-Luc, C2C12 myofibroblasts cells); assay: Cell luciferase assay, BMP (C2C12 BRE-Luc, BMP6 ligand); format: cell-based; conditions: Mus musculus, BMP6 50 ng/mL, read-out: Cellular Assay IC50 (nM) BMP
SMILES,IC50 [1] [nM],further results
"CC(C)(CN1CCCCC1)Oc1ccc(-c2cnc3c(-c4cccc5ncccc45)cnn3c2)cc1 [Compound 32, 5-(6-(4-((2-methyl-1-(piperidin-1-yl)propan-2-yl)oxy)phenyl)pyrazolo[1,5-a]pyrimidin-3-yl)quinoline]",100000,
"c1cc(-c2cnn3cc(-c4ccc(OCCN5CCCCC5)nc4)cnc23)c2cccnc2c1 [Compound 29, 5-(6-(6-(2-(piperidin-1-yl)ethoxy)pyridin-3-yl)pyrazolo[1,5-a]pyrimidin-3-yl)quinoline]",67900,
"[2H]c1ccc2c(-c3cnn4cc(-c5ccc(N6[C@H](C)CNC[C@@H]6C)cc5)cnc34)cccc2n1 [Compound 53, 5-(6-(4-((2R,6S)-2,6-dimethylpiperazin-1-yl)phenyl)pyrazolo[1,5-a]pyrimidin-3-yl)2-^2H-quinoline]",390,
"c1cc(-c2cnn3cc(-c4ccc(OCCN5CCNCC5)nc4)cnc23)c2cccnc2c1 [Compound 42, 5-(6-(6-(2-(piperazin-1-yl)ethoxy)pyridin-3-yl)pyrazolo[1,5-a]pyrimidin-3-yl)quinoline]",39000,
"Cc1ccc2c(-c3cnn4cc(-c5ccc(OC6CCNCC6)cn5)cnc34)cccc2n1 [Compound 62, 2-methyl-5-(6-(5-(piperidin-4-yloxy)pyridin-2-yl)pyrazolo[1,5-a]pyrimidin-3-yl)quinoline]",1890,
"N#Cc1cc(-c2cnc3c(-c4ccnc5ccccc45)cnn3c2)ccc1N1CCNCC1 [Compound 37, 2-(piperazin-1-yl)-5-(3-(quinolin-4-yl)pyrazolo[1,5-a]pyrimidin-6-yl)benzonitrile]",12100,
"CNCc1ccc2c(-c3cnn4cc(-c5ccc(N6CCNCC6)cc5)cnc34)ccnc2c1 [Compound 18, N-methyl-1-(4-(6-(4-(piperazin-1-yl)phenyl)pyrazolo[1,5-a]pyrimidin-3-yl)quinolin-7-yl)methanamine]",4160,
"Cc1cc(-c2cnn3cc(-c4ccc(N5CCNCC5)nc4)cnc23)c2ccccc2n1 [compound 12, 2-methyl-4-(6-(6-(piperazin-1-yl)pyridin-3-yl)pyrazolo[1,5-a]pyrimidin-3-yl)quinoline]",463,
"NC(=O)c1cccc2c(-c3cnn4cc(-c5ccc(N6CCNCC6)cc5)cnc34)ccnc12 [Compound 23, 4-(6-(4-(piperazin-1-yl)phenyl)pyrazolo[1,5-a]pyrimidin-3-yl)quinoline-8-carboxamide]",37,
"Cc1cc(-c2cnn3cc(-c4ccc(N5CCNCC5)cc4)cnc23)c2ccccc2n1 [Compound 10, 2-methyl-4-(6-(4-(piperazin-1-yl)phenyl)pyrazolo[1,5-a]pyrimidin-3-yl)quinoline]",,IC50 [2]: 23 nM
"[2H]c1ccc2c(-c3cnn4cc(-c5ccc(O[C@H]6CCNC6)cn5)cnc34)cccc2n1 [Compound 65, (S)-5-(6-(5-(pyrrolidin-3-yloxy)pyridin-2-yl)pyrazolo[1,5-a]pyrimidin-3-yl)-2-^2H-quinoline]",3070,
"Cc1ccc2c(-c3cnn4cc(-c5ccc(OCCN6CCOCC6)cn5)cnc34)cccc2n1 [Compound 56, 4-(2-((6-(3-(2-methylquinolin-5-yl)pyrazolo[1,5-a]pyrimidin-6-yl)pyridin-3-yl)oxy)ethyl)morpholine]",16500,
"CN1CCN(CCOc2ccc(-c3cnc4c(-c5cccc6ncccc56)cnn4c3)cn2)CC1 [Compound 44, 5-(6-(6-(2-(4-methylpiperazin-1-yl)ethoxy)pyridin-3-yl)pyrazolo[1,5-a]pyrimidin-3-yl)quinoline]",58800,
"CC(=O)Nc1ccc2c(-c3cnn4cc(-c5ccc(N6CCNCC6)cc5)cnc34)ccnc2c1 [Compound 26, N-(4-(6-(4-(piperazin-1-yl)phenyl)pyrazolo[1,5-a]pyrimidin-3-yl)quinolin-7-yl)acetamide]",5100,
"Cc1ccc2c(-c3cnn4cc(-c5ccc(OCCN6CCCCC6)cn5)cnc34)cccc2n1 [Compound 48′, 2-methyl-5-(6-(5-(2-(piperidin-1-yl)ethoxy)pyridin-2-yl)pyrazolo[1,5-a]pyrimidin-3-yl)quinoline]",1140,IC50 [3]: 587 nM
"c1ccc2c(-c3cnn4cc(-c5ncc(N6CCNCC6)s5)cnc34)ccnc2c1 [Compound 7, 5-(piperazin-1-yl)-2-(3-(quinolin-4-yl)pyrazolo[1,5-a]pyrimidin-6-yl)thiazole]",3530,
"COc1ccc2c(-c3cnn4cc(-c5ccc(N6[C@H](C)CNC[C@@H]6C)cc5)cnc34)cccc2n1 [Compound 67, 5-(6-(4-((2S,6R)-2,6-dimethylpiperazin-1-yl)phenyl)pyrazolo[1,5-a]pyrimidin-3-yl)-2-methoxyquinoline]",2800,
"CN1CCN(CCOc2ccc(-c3cnc4c(-c5ccnc6ccccc56)cnn4c3)cn2)CC1 [Compound 43, 4-(6-(6-(2-(4-methylpiperazin-1-yl)ethoxy)pyridin-3-yl)pyrazolo[1,5-a]pyrimidin-3-yl)quinoline]",8300,
"C[C@@H]1CNC[C@H](C)N1c1ccc(-c2cnc3c(-c4ccnc5ccccc45)cnn3c2)cn1 [Compound 33, 4-(6-(6-((2R,6S)-2,6-dimethylpiperazin-1-yl)pyridin-3-yl)pyrazolo[1,5-a]pyrimidin-3-yl)quinoline]",928,
"[2H]c1ccc2c(-c3cnn4cc(-c5ccc(OCCN6CCN(C)CC6)cn5)cnc34)cccc2n1 [Compound 51, 5-(6-(5-(2-(4-methylpiperazin-1-yl)ethoxy)pyridin-2-yl)pyrazolo[1,5-a]pyrimidin-3-yl)-2-^2H-quinoline]",11600,
Clc1cc(-c2cnc3c(-c4cccc5ncccc45)cnn3c2)ccc1OCCN1CCCCC1 [Compound 46],53600,
"[2H]c1ccc2c(-c3cnn4cc(-c5ccc(OC6CCNCC6)cn5)cnc34)cccc2n1 [Compound 61, 5-(6-(5-(piperidin-4-yloxy)pyridin-2-yl)pyrazolo[1,5-a]pyrimidin-3-yl)-2-^2H-quinoline]",5390,
"Clc1cc(-c2cnc3c(-c4ccnc5ccccc45)cnn3c2)ccc1OCCN1CCCCC1 [Compound 45, 4-(6-(3-chloro-4-(2-(piperidin-1-yl)ethoxy)phenyl)pyrazolo[1,5-a]pyrimidin-3-yl)quinoline]",18300,
"c1ccc2c(-c3cnn4cc(-c5ccc(N6C[C@@H]7C[C@H]6CN7)cc5)cnc34)ccnc2c1 [Compound 6, 4-(6-(4-((1S,4S)-2,5-diazabicyclo[2.2.1]heptan-2-yl)phenyl)pyrazolo[1,5-a]pyrimidin-3-yl)quinoline]",39,
